Measurements reported in PMC7614775 (Nature chemical biology, 2022).

Assays:
[1] = system: IL-12-STAT4 signaling (TYK2/JAK2-dependent); test: Phospho-STAT western blot in human PBMC-derived T-blasts; format: cell-based; details: compound 2 h, IL-12 12.5 ng/mL 15 min
[2] = system: prolactin (PRL)-stimulated STAT5 (JAK2-dependent) phosphorylation; test: Phospho-STAT western blot in 22Rv1 cells expressing JAK1 variants; format: cell-based, human; details: 2 µM, 2 h
[3] = system: GM-CSF stimulated STAT5 phosphorylation (JAK2-dependent); test: Phospho-STAT western blot in human PBMCs; format: cell-based; details: compound 2 h, GM-CSF 15 min

## C[C@@H]1CCN(C(=O)CC#N)C[C@@H]1N(C)c1ncnc2[nH]ccc12 [tofacitinib, reference compound]
[1]
  effect on IL-12-STAT4 signaling: inhibited
[2]
  effect on PRL-induced STAT5 phosphorylation: fully inhibited
[3]
  effect on GM-CSF stimulated STAT5 phosphorylation: blocked
